Values quoted from earlier work, collected in US20190338294A1, “ORTHOGONAL TRANSCRIPTIONAL SWITCHES DERIVED FROM TET REPRESSOR HOMOLOGS FOR SACCHAROMYCES CEREVISIAE” (The Johns Hopkins University, priority 2016, published 2019).

Test system: yeast
Settings: Ikushima et al., 2015; cited from earlier work

D-camphor
impact on yeast growth: little impact on yeast growth
